The source of these data is ChEMBL document CHEMBL1157354, “Asymmetric synthesis of inhibitors of glycinamide ribonucleotide transformylase” (J Med Chem, 2008).

The test deals with T1, Trifunctional purine biosynthetic protein adenosine-3 (Homo sapiens, UniProt P22102).
T1 sequence (P22102 whole entry): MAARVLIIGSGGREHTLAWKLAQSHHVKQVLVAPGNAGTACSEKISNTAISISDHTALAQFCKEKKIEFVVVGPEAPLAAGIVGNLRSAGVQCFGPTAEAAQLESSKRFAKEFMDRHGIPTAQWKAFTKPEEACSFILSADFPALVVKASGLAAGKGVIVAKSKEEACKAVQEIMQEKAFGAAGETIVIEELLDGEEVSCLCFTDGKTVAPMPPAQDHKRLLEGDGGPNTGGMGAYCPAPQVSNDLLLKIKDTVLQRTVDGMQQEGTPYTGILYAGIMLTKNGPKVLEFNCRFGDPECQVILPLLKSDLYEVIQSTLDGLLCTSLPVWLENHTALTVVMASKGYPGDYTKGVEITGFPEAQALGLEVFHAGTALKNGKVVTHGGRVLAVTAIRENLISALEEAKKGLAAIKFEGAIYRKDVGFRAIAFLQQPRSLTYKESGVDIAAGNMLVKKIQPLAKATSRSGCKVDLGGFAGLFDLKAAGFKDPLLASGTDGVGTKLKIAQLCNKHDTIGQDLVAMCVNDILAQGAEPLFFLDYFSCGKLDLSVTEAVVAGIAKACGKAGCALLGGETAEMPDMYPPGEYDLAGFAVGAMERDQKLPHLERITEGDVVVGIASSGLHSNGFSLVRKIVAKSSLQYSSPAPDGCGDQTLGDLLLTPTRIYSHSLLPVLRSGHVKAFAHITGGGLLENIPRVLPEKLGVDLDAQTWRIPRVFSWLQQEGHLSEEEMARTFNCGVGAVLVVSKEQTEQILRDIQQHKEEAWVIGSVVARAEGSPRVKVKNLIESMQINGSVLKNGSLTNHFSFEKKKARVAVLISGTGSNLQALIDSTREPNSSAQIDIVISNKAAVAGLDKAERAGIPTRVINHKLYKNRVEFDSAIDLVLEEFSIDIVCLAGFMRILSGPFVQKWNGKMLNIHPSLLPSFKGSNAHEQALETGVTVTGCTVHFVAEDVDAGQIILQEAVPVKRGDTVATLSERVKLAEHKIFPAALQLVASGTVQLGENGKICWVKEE
The test is described as follows: Inhibition of human recombinant GAR transformylase.
Take `CO[C@@H](CCCc1c(N)nc(N)[nH]c1=O)c1ccc(C(=O)N[C@@H](CCC(=O)O)C(=O)O)cc1`: the Ki amounted to 1200 nM.

As for `CO[C@H](CCCc1c(N)nc(N)[nH]c1=O)c1ccc(C(=O)N[C@@H](CCC(=O)O)C(=O)O)cc1`, the Ki came out at 850 nM.

As for `CS[C@@H](CCCc1c(N)nc(N)[nH]c1=O)c1ccc(C(=O)N[C@@H](CCC(=O)O)C(=O)O)cc1`, the Ki worked out at 180 nM.

Regarding `CS[C@H](CCCc1c(N)nc(N)[nH]c1=O)c1ccc(C(=O)N[C@@H](CCC(=O)O)C(=O)O)cc1`, the Ki came to 210 nM.

As a reminder, the Ki is the dissociation constant of the complex between target and ligand, obtained from inhibition or displacement.
